# Patent publication US9695149B2, “1,2,6-substituted benzimidazoles as flap modulators” (JANSSEN PHARMACEUTICA NV, priority 2013, dated 2017)
# Amino acid sequences for entries named in this document (tags omitted). A change or cut given only in a name is not applied to a line headed by its entry.
# UniProt P20292: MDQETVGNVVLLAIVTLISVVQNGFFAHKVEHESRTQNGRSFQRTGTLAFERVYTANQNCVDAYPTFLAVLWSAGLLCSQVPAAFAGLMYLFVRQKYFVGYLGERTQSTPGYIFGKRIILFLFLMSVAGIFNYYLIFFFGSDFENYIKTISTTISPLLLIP
# Target: human FLAP (Homo sapiens (Human), UniProt P20292)
# Assay: FLAP binding assay (HTRF format)
# Details: human FLAP-containing Sf-9 membranes, wild type; average of runs
row,Ki [nM],Structure (SMILES)
1,24,"Cc1ccc(COc2ccc3nc(C4CCCC[C@H]4C(=O)O)n(Cc4cc(Br)ccc4F)c3c2)nc1 (mixture of isomers) [Example 218, racemic trans-2-{1-(5-Bromo-2-fluorobenzyl)-6-[(5-methylpyridin-2-yl)methoxy]-1H-benzimidazol-2-yl}cyclohexanecarboxylic acid]"
2,17,"Cc1ccc(COc2ccc3nc(C4CCCC[C@H]4C(=O)O)n(Cc4cccc(N5CCCCC5)c4)c3c2)nc1 (mixture of isomers) [Example 224, racemic trans-2-{6-[(5-Methylpyridin-2-yl)methoxy]-1-(3-piperidin-1-ylbenzyl)-1H-benzimidazol-2-yl}cyclohexanecarboxylic acid]"
3,180,"Cc1ccc(COc2ccc3nc(C4[C@H](C(=O)O)C4(C)C)n(Cc4cc(Br)ccc4F)c3c2)nc1 (mixture of isomers) [Example 227, racemic cis-3-{1-(5-Bromo-2-fluorobenzyl)-6-[(5-methylpyridin-2-yl)methoxy]-1H-benzimidazol-2-yl}-2,2-dimethylcyclopropanecarboxylic acid]"
4,11,"Cc1ccc(COc2ccc3nc([C@H]4CCCC[C@H]4C(=O)O)n(Cc4cc(Br)ccc4F)c3c2)nc1 (racemic) [Example 229, racemic-cis-2-{1-(5-Bromo-2-fluorobenzyl)-6-[(5-methylpyridin-2-yl)methoxy]-1H-benzimidazol-2-yl}cyclohexanecarboxylic acid]"
5,4.2,"Cc1ccc(COc2ccc3nc(C4CCCC[C@H]4C(=O)O)n(Cc4cccc(N5CCC(F)(F)C5)c4)c3c2)nc1 (mixture of isomers) [Example 220, racemic cis-2-{1-[3-(3,3-Difluoropyrrolidin-1-yl)benzyl]-6-[(5-methylpyridin-2-yl)methoxy]-1H-benzimidazol-2-yl}cyclohexanecarboxylic acid]"
6,6.8,"Cc1ccc(COc2ccc3nc(C4CCCC[C@H]4C(=O)O)n(Cc4cccc(N5CCCCC5)c4)c3c2)nc1 (mixture of isomers) [Example 223, racemic cis-2-{6-[(5-Methylpyridin-2-yl)methoxy]-1-(3-piperidin-1-ylbenzyl)-1H-benzimidazol-2-yl}cyclohexanecarboxylic acid]"
